Data taken from patent US20100093623.

Legend:
[1] = target: T1, Bcl-2 Loop peptide 35-83 (synthetic)
T1 chain: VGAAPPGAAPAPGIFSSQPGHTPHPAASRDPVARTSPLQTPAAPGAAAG

[2] = target: GST-Bcl-2 (Bcl-2 lacking its C-terminal transmembrane domain, ~last 20 amino acids) [GST: P08515]

B1: fully active, proteolytically processed Caspase-1 comprised of p20 and p10 catalytic subunits purified from bacteria (protein)
chain 1: NPAMPTSSGSEGNVKLCSLEEAQRIWKQKSAEIYPIMDKSSRTRLALIICNEEFDSIPRRTGAEVDITGMTMLLQNLGYSVDVKKNLTASDMTTELEAFAHRPEHKTSDSTFLVFMSHGIREGICGKKHSEQVPDILQLNAIFNMLNTKNCPSLKDKPKVIIIQACRGDSPGVVWFKD
chain 2: AIKKAHIEKDFIAFCSSTPDNVSWRHPTMGSVFIGRLIEHMQEYACSCDVEEIFRKVRFSFEQPDGRAQMPTTERVTLTRCFYLFPGH
Caspase-1 activity (Ac-WEHD-AMC hydrolysis) [1]: this 35-83 Bcl-2 loop peptide did not directly inhibit Caspase-1
Caspase-1 activity (Ac-WEHD-AMC hydrolysis) [2]: neither Bcl-2 nor Bcl-XL suppressed Caspase-1 activity
